Results on two molecules are retold here after patent US5688774A (priority 1995, dated 1997).

Experiment [1] concerns the target T1, rat A3 receptor (Rattus norvegicus, UniProt P28647).
T1 sequence (P28647 1-320): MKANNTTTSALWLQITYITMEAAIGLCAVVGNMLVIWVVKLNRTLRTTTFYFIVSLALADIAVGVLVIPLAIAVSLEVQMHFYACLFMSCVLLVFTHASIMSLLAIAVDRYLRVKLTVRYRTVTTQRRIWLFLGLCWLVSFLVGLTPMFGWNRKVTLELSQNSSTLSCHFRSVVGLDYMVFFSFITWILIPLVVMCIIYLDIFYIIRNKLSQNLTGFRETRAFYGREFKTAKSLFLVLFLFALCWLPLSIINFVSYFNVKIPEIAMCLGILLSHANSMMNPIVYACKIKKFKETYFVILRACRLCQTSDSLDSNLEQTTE
The experiment in a line: Displacement of [^125 I]AB-MECA (or [^125 I]APNEA) binding from membranes of CHO cells stably transfected with rat A3 cDNA. The settings on record: ratio Ki (A1) / Ki (A3).

Experiment [2] addresses T1, rat A3 receptor. The experiment in a line: biochemical.
Experiment [3] has as its target T1, rat A3 receptor. Further details: expressed in transfected cells; host or cells: CHO cells, stably transfected. The settings on record: read-out: Kd for [^125 I]APNEA; assumed for Cheng-Prusoff (Zhou et al.); cited from earlier work.

Consider `Clc1nc(NCc2cccc(I)c2)c2ncn(C3CCCO3)c2n1` (stereo not drawn) [Compound 30, 2-Chloro-N-(3-Iodobenzyl)-9-(2-Tetrahydrofuryl)-9H-Purin-6-Amine], for which the “A1 /A3 (printed Ai /A3)” value at rat A3 receptor [1] is on record as 0.13. For the same molecule, the affinity at rat A3 receptor [2] corresponds to a Ki of 3470 ± 580 nM.

As to `Nc1ccc(CCNc2ncnc3c2ncn3[C@@H]2O[C@H](CO)[C@@H](O)[C@H]2O)cc1I` [[^125 I]APNEA, [^125 I]N^6-2-(4-aminophenyl)ethyladenosine], the dissociation constant (Kd) on rat A3 receptor [3] was 17 nM.

A word on the Ki: it is the equilibrium dissociation constant of an inhibitor or competing ligand from its target. A low value points to tighter binding. What is called Kd is a measure of binding affinity in units of concentration.
